Source: PubChem BioAssay
The list is not random: actives were taken first. Their share in the collection is about 13%.
KDM4E inh = JMJD2E (human) inhibition | B2RXH2 | JMJD2E catalytic domain, FDH-coupled NADH fluorescence (FDH is formaldehyde dehydrogenase) | Potency, µM (highest dose often 57.1 µM), for the others: at the highest dose activity change, negative = inhibition, actives largely listed as inhibitors | hit rate 1.6% among 230,000; active = well fitted inhibition curve with a large enough effect, not every such curve was filed as active; inconclusive = small, poorly fitted or top-dose-only effect, or another doubt; inactive = no such curve, though single readings can be large or run the other way;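 also: potency is read from the fitted curve at half-maximal effect; 0% = wells with enzyme and -100% = buffer wells without enzyme; nearly all actives have a fitted effect of over 50% in size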
G9a inh = G9a (human) methyltransferase inhibition; G9a H3K9 monomethylation, AlphaScreen, 2 h; hit rate 8.8% among 350,000; Potency, µM (series often up to 102 µM), for the others: top-dose activity, negative = inhibition, most hits filed as inhibitors; Q96KQ7; also: potency is read from the fitted curve at half-maximal effect; % is scaled to controls: 0 for no effect and ±100 for the full control effect; nearly all actives have a fitted effect of over 75% in size
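Step 1: enzyme (final 20 nM) with compound, 15 min RT. Step 2: substrate peptide 500 nM and SAM 20 uM, 2 h RT. Step 3: anti-H3K9me1 antibody and AlphaScreen beads, 10 min, then plate read.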
LMNA splice mod = changes lamin A minigene splicing in HeLa cells; hit rate 0.01% among 200,000; HeLa LMNA splicing GFP/RFP minigene ratio, 48 h; AID 1487; Potency, µM (highest dose often 46.1 µM), for the others: top-dose ratio change, negative = inhibition, actives largely listed as inhibitors; active = well fitted inhibition curve with a large enough effect in the signal ratio, with a control signal flat, not every such curve was filed as active; inconclusive = small, poorly fitted or top-dose-only effect, or effect the other way, or a change in a side signal; the % refers to the signal ratio; also: potency is read from the fitted curve at half-maximal effect; % is scaled to controls: 0 for no effect and ±100 for the full control effect
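S3 HeLa stable clones carrying a lamin A-EGFP splicing minigene plus DsRed2 were seeded at 600 cells/well in Opti-MEM with 2% FBS, pin-dosed and incubated 48 h at 37°C. Acumen cytometry (488 nm) gave the GFP/RFP total-intensity ratio.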
ALDH1A1 inh = inhibitors of human aldehyde dehydrogenase 1A1; P00352; Purified ALDH1A1, NADH fluorescence, propionaldehyde substrate; Potency, µM (highest dose often 75.3 µM), without a hit: at the highest dose activity, negative = inhibition, usual class: inhibitors; hit rate 7.3% among 220,000; active = well fitted inhibition curve with a large enough effect, not every such curve was filed as active; inconclusive = small, poorly fitted or top-dose-only effect, or another doubt; inactive = no such curve, though single readings can be large or run the other way;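 also: potency is read from the fitted curve at half-maximal effect; plate controls were no enzyme wells and a reference inhibitor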
miR-21 reporter = miR-21 reporter, rising signal. HeLa miR-21 FLuc reporter, luciferase, 48 h. Potency, µM (highest dose often 38.3 µM), for the others: at the highest dose reporter change, positive = more light. 340,000 tested, under 10 active. AID 2288; active = well fitted rising curve with a large enough effect; inconclusive = small, poorly fitted or top-dose-only effect; inactive = no such curve, though single readings can be large or run the other way;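 further: % of control where 0% means no effect; miR-21 action dims this reporter so a rising signal means less miR-21 action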
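Compounds were titrated across several concentrations (up to approximately 40 uM) and incubated 48 hours with HeLa miR-21-FLuc reporter cells (miR-21 target sequence downstream of FLuc, endogenous miR-21). Readout was firefly luciferase luminescence after lytic detection reagent.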
Sfp PPTase inh = qHTS Assay for Inhibitors of Bacillus subtilis Sfp phosphopantetheinyl transferase (PPTase) | 4'-phosphopantetheinyl transferase ffp (Bacillus subtilis), Q9F4F7 | Biochemical Sfp PPTase activity, qHTS | Potency, µM, for inactives: max response, negative = inhibition, hits mostly inhibitors | 3.5% of 310,000 active | AID 1490, 2009; active = well fitted inhibition curve with a large enough effect; inconclusive = small, poorly fitted or top-dose-only effect, or another doubt; inactive = no such curve, though single readings can be large or run the other way;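 also: the enzyme is Sfp with the accession as filed and its product quenches rhodamine fluorescence; potency is read from the fitted curve at half-maximal effect; 0% = enzyme reaction without inhibitor and -100% = no enzyme wells; top concentration of the series not given in the record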
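Fluorescence-quenching assay with 15 nM Sfp, 5 uM rhodamine-CoA and 12.5 uM BHQ-2-labelled ybbR peptide in pH 7.6 Hepes/MgCl2 buffer. Enzyme was pre-incubated with compound for 15 min at room temperature. Rate was taken from the 30-min fluorescence change (525/598 nm).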
Numbers without * were called inactive; [ ] = another dose, or the depositor's remark. Unless noted, calls follow the shape of the dose curve; as a rule, active = well fitted curve in the direction sought with a large enough effect; inconclusive = small, poorly fitted or top-dose-only effect, or another doubt; inactive = no such curve, though single readings can be large; an effect the other way counts as inactive or inconclusive.

A first look (3 entries):
CCn1c(CNC(=O)c2ccc(OC)cc2)nnc1SCC(=O)Nc1ccc(C)cc1 was read as G9a inh 4%[59 µM] and miR-21 reporter -7%.
Screening Cc1ccc(CNC(=O)C2CCN(Cc3nc(-c4ccccc4C)oc3C)CC2)cc1 returned G9a inh -5%[59 µM] and miR-21 reporter 5%.
For CCOc1ccc(N2CC(=O)SC2=S)cc1 the results were KDM4E inh 5%, G9a inh -40%, LMNA splice mod 14%, ALDH1A1 inh 6%, miR-21 reporter -14% and Sfp PPTase inh 1%.

Main list, from the first entry:
CCn1c(CNC(=O)c2ccc(OC)cc2)nnc1SCC(=O)Nc1ccc(C)cc1 was read as G9a inh 4%[59 µM] and miR-21 reporter -7%.
Screening Cc1ccc(CNC(=O)C2CCN(Cc3nc(-c4ccccc4C)oc3C)CC2)cc1 returned G9a inh -5%[59 µM] and miR-21 reporter 5%.
For CCOc1ccc(N2CC(=O)SC2=S)cc1 the results were KDM4E inh 5%, G9a inh -40%, LMNA splice mod 14%, ALDH1A1 inh 6%, miR-21 reporter -14% and Sfp PPTase inh 1%.
CCOc1ccc(N2CSC(=S)N(c3ccc(OCC)cc3)C2)cc1 was read as KDM4E inh -6%, G9a inh -7%, miR-21 reporter -14% and Sfp PPTase inh 35µM*.
CC1(C)CC(=O)C(C=NCC2CCN(C(=O)Cc3ccccc3)CC2)=C(O)C1 was read as KDM4E inh 3%, G9a inh -12%[59 µM], LMNA splice mod inconclusive, ALDH1A1 inh inconclusive, miR-21 reporter -2% and Sfp PPTase inh 14%.
`CCCC(c1nnnn1C1CCCC1)N1CCN(C(=O)c2ccco2)CC1` (configuration not stated) gave KDM4E inh -24%, G9a inh inconclusive, LMNA splice mod 12%, ALDH1A1 inh inconclusive, miR-21 reporter -5% and Sfp PPTase inh 5%.
`Cc1ccc2occ(C(c3nnnn3C3CCCC3)N3CCN(C(=O)c4ccco4)CC3)c(=O)c2c1` (configuration not stated) gave KDM4E inh 0%, G9a inh 23%[59 µM], LMNA splice mod 23%, ALDH1A1 inh 1.1µM*, miR-21 reporter 15% and Sfp PPTase inh -11%.
CC(C)CC(c1nnnn1C1CCCC1)N1CCN(C(=O)c2ccco2)CC1 (configuration not stated) was read as KDM4E inh -2%, G9a inh -35%[59 µM], LMNA splice mod -3%, ALDH1A1 inh 8.9µM*, miR-21 reporter -6% and Sfp PPTase inh -23%.
For CCCCC(c1nnnn1C1CCCC1)N1CCN(C(=O)c2ccco2)CC1 (configuration not stated) the results were KDM4E inh -2%, G9a inh -48%[12.7 µM], LMNA splice mod 3%, ALDH1A1 inh 11µM*, miR-21 reporter 0% and Sfp PPTase inh -11%.
`O=C(c1ccco1)N1CCN(C(c2ccccn2)c2nnnn2C2CCCC2)CC1` (configuration not stated) gave KDM4E inh -3%, G9a inh inconclusive, LMNA splice mod -2%, ALDH1A1 inh 13µM*, miR-21 reporter -76% and Sfp PPTase inh 1%.
For O=C(c1ccco1)N1CCN(C(c2cccs2)c2nnnn2C2CCCC2)CC1 (configuration not stated) the results were KDM4E inh -6%, G9a inh inconclusive, LMNA splice mod -12%, ALDH1A1 inh inconclusive, miR-21 reporter -8% and Sfp PPTase inh 0%.
For COc1cccc(CNC(=O)CSc2cc(C)[nH]c(=O)n2)c1 the results were G9a inh -3%[59 µM], LMNA splice mod 4%[46 µM] and miR-21 reporter 1%.
Screening CCC(c1nnnn1C1CCCC1)N1CCN(Cc2ccccc2)CC1 (configuration not stated) returned KDM4E inh -2%, G9a inh inconclusive, LMNA splice mod -2%, ALDH1A1 inh 14µM*, miR-21 reporter -6% and Sfp PPTase inh 26%.
For CN1C(=O)/C(=C/c2ccc(-c3ccccc3[N+](=O)[O-])o2)SC1=Nc1ccc(Cl)c(C(=O)O)c1 the results were KDM4E inh 0%, G9a inh 3.2µM*, LMNA splice mod -3%, ALDH1A1 inh 13µM*, miR-21 reporter -20% and Sfp PPTase inh 14µM*.
For CN(CCCC(=O)NC1CC(C)(C)NC(C)(C)C1)S(=O)(=O)c1ccc([N+](=O)[O-])cc1 the results were KDM4E inh 5%, LMNA splice mod -3%[46 µM], ALDH1A1 inh -2%, miR-21 reporter 0% and Sfp PPTase inh -2%.
COc1ccc(CNc2nc(-c3ccc4c(c3)OCO4)nc3ccccc23)c(OC)c1 was read as G9a inh -4%[0.501 µM], LMNA splice mod inconclusive, ALDH1A1 inh 3% and Sfp PPTase inh inconclusive.
CCCC(C)c1nnc(NC(=O)C2CC(=O)N(CCc3ccc(F)cc3)C2)s1 (configuration not stated) was read as G9a inh 7.9µM*, miR-21 reporter -1% and Sfp PPTase inh 28µM*.
CC(C)(C)c1nnc(NC(=O)C2CC(=O)N(CCc3ccc(F)cc3)C2)s1 (configuration not stated) was read as G9a inh 32µM*, miR-21 reporter -4% and Sfp PPTase inh inconclusive.
For Cc1[nH]c(=O)c(C#N)cc1-c1ccc2nccn2c1 the results were KDM4E inh -17%, G9a inh 13µM*, LMNA splice mod inconclusive, ALDH1A1 inh -6% and Sfp PPTase inh -3%.
For CC1(C)CC(=O)c2cc(-c3nc(-c4ccc(Br)cc4)cs3)c(=O)n(-c3ccccc3)c2C1 the results were G9a inh 6%[59 µM] and miR-21 reporter 2%.
Screening O=C(Nc1cccc(Cl)c1)c1cc2c(=O)[nH]c3ccccc3c2s1 returned G9a inh 1%[59 µM] and miR-21 reporter -25%.
Screening Cc1cc(C(=O)N/N=C2\CC(=O)CC(C)(C)C2)c(C)n1-c1ccc(F)cc1 returned KDM4E inh -22%, G9a inh 4%[59 µM], LMNA splice mod inconclusive, ALDH1A1 inh 28µM*, miR-21 reporter -4% and Sfp PPTase inh -2%.
For CCC(=O)Nc1c(C)nn(-c2ccc(C)c(C)c2)c1C the results were KDM4E inh 6%, G9a inh 28µM*, LMNA splice mod -3%, ALDH1A1 inh -15%, miR-21 reporter -43% and Sfp PPTase inh 5%.
Cc1ccc(-n2nc(C)c(NC(=O)CCl)c2C)cc1C was read as KDM4E inh 4%, G9a inh -4%, LMNA splice mod inconclusive, ALDH1A1 inh inconclusive, miR-21 reporter 28% and Sfp PPTase inh 13%.
Screening CCOC(=O)c1c(C)oc2c1c1c(c3ccccc32)OCN(CCCC(=O)O)C1 returned KDM4E inh 10µM*, G9a inh 8.9µM*, ALDH1A1 inh 7.9µM*, miR-21 reporter -82% and Sfp PPTase inh -6%.
Screening CCOC(=O)c1c(C)oc2c1c1c(c3ccccc32)OCN(Cc2cccnc2)C1 returned KDM4E inh inconclusive, G9a inh inconclusive, LMNA splice mod inconclusive, ALDH1A1 inh 0.2µM*, miR-21 reporter -56% and Sfp PPTase inh inconclusive.
CCOC(=O)c1c(C)oc2c1cc(O)c1ccccc12 was read as KDM4E inh 2%, G9a inh -8%, LMNA splice mod 11%, ALDH1A1 inh 2%, miR-21 reporter -60% and Sfp PPTase inh 24%.
